Test results from patent US6214345A, “Lysosomal enzyme-cleavable antitumor drug conjugates” (Bristol-Myers Squibb Co., priority 1993, dated 2001).

Conditions: freshly drawn human plasma, about 37° C.

BR96-succinimidocaproyl-phenylalanine-lysine-p-aminovenzyl-carbamoyloxy-doxorubicin [BR96-DOX]
free DOX detected from the conjugate in plasma (over 7.5 hours): No free DOX was detected | half-life in human plasma (no release over 7.5 hours): > 15.6 days
